# Measurements: ChEMBL document CHEMBL5537129, “Discovery of novel 3-(1H-pyrazol-4-yl)-1H-indazole derivatives as potent type II TRK inhibitors against acquired resistance” (Eur J Med Chem, 2024)
# Amino acid sequences for entries named in this document (tags omitted). A change or cut given only in a name is not applied to a line headed by its entry.
# UniProt P27361, whole entry: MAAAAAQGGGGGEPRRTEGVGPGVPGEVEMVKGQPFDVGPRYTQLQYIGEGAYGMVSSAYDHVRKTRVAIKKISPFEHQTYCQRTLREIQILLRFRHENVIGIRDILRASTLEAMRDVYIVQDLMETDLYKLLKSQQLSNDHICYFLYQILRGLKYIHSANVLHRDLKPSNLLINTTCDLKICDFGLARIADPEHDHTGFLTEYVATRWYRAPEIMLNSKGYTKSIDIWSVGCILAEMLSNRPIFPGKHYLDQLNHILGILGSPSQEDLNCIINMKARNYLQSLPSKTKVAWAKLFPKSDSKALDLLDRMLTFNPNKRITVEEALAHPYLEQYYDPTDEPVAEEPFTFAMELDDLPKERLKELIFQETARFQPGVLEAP
# UniProt O60674: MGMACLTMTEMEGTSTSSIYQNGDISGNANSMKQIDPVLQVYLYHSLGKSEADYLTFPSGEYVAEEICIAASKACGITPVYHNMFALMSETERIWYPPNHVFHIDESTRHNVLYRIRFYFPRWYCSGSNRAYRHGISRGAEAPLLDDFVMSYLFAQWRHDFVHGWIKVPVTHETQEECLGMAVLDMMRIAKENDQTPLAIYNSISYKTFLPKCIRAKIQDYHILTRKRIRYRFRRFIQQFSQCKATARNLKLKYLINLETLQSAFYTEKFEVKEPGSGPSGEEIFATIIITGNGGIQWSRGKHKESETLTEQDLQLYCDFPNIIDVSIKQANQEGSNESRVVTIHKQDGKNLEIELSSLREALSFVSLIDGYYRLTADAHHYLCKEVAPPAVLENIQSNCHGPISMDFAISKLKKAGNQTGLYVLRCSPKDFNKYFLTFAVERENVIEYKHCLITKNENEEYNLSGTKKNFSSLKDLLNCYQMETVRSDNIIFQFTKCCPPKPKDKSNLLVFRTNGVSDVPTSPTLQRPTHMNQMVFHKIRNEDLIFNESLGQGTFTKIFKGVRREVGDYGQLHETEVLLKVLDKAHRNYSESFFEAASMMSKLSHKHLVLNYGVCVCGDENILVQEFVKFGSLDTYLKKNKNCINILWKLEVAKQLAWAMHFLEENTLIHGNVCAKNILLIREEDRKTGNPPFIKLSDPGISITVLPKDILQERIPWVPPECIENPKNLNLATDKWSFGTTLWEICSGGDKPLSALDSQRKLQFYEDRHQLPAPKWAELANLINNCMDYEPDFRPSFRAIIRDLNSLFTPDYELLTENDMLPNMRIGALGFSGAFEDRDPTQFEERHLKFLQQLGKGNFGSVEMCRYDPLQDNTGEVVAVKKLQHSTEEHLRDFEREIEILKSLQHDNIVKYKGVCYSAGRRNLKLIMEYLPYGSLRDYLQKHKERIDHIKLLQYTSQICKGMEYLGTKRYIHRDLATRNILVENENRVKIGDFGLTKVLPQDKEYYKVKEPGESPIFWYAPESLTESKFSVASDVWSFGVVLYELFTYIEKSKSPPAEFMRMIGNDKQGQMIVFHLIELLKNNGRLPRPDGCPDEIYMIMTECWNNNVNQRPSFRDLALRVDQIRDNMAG
# UniProt Q9H2X6: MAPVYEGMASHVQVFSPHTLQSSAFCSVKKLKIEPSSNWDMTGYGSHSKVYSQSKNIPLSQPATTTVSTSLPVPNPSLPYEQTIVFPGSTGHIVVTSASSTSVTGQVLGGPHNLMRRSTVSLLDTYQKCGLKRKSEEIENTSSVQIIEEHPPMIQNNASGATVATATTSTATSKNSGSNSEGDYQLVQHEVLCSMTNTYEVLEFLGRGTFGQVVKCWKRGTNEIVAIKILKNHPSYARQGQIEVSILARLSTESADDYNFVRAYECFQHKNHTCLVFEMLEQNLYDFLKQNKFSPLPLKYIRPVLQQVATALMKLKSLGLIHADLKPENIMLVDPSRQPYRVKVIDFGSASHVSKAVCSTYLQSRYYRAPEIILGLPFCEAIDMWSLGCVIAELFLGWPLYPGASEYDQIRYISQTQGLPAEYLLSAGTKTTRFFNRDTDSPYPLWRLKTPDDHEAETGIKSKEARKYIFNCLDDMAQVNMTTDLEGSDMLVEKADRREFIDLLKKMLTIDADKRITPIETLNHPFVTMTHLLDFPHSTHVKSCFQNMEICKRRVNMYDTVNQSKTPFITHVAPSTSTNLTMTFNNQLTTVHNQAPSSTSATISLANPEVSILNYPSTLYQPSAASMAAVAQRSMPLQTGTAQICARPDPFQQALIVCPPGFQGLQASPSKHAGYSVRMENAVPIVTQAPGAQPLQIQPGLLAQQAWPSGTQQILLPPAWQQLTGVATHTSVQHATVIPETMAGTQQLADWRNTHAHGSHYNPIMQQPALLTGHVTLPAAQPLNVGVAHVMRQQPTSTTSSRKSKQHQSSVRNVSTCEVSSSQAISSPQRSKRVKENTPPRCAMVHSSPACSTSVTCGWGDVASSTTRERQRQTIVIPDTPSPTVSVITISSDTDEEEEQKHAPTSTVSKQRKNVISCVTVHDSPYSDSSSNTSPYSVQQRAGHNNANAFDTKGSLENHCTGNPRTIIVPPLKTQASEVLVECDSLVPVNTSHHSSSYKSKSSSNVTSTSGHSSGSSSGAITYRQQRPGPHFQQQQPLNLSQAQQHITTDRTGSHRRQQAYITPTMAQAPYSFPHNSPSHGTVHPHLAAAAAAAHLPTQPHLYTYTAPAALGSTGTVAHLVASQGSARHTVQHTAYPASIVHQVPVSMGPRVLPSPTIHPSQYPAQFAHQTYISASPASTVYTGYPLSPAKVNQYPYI
# UniProt Q86Z02: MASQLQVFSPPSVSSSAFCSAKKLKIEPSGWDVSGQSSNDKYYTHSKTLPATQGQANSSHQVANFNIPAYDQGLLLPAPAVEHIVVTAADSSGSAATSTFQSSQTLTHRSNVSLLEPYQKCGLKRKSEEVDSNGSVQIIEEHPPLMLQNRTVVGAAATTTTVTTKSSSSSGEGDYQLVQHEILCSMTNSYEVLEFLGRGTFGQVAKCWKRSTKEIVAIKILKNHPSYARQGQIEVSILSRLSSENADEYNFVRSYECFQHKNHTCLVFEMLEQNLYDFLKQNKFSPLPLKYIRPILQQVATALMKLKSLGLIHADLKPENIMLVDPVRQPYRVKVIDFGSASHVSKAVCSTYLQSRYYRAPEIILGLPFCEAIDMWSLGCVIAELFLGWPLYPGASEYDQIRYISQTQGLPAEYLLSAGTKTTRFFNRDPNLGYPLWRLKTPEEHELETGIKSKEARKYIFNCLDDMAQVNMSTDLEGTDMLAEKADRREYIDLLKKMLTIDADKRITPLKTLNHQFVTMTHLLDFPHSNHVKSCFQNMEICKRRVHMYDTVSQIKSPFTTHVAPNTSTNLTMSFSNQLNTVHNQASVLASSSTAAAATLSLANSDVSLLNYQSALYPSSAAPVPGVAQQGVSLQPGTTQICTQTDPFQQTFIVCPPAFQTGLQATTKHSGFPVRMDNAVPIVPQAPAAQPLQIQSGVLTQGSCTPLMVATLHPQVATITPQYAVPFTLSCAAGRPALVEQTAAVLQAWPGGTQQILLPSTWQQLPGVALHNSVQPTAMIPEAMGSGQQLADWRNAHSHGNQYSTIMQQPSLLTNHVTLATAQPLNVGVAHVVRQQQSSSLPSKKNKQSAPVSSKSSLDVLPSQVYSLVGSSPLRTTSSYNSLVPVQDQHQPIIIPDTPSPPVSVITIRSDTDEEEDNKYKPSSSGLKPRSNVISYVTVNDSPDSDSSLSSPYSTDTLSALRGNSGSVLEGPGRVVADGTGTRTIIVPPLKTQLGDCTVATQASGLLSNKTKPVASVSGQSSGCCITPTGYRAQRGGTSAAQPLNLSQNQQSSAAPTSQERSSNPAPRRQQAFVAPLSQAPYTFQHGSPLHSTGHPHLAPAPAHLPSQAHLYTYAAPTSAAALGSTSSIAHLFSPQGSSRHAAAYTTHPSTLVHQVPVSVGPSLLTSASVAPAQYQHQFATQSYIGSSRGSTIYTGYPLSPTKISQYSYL
# UniProt Q13153, whole entry: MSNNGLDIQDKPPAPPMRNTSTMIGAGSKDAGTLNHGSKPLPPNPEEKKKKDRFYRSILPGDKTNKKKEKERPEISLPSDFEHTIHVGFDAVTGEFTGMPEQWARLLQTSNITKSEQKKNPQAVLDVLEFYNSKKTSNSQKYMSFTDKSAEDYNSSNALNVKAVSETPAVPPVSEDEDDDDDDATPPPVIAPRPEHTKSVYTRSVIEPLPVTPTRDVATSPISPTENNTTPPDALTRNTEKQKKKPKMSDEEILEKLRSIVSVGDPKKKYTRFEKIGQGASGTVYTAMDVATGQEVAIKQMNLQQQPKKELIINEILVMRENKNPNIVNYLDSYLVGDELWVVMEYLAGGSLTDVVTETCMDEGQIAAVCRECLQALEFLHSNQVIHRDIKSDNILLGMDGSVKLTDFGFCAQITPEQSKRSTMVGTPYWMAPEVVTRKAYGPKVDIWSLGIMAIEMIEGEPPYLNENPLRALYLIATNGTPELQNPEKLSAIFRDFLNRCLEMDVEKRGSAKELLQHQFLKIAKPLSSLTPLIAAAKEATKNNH
# UniProt P23458: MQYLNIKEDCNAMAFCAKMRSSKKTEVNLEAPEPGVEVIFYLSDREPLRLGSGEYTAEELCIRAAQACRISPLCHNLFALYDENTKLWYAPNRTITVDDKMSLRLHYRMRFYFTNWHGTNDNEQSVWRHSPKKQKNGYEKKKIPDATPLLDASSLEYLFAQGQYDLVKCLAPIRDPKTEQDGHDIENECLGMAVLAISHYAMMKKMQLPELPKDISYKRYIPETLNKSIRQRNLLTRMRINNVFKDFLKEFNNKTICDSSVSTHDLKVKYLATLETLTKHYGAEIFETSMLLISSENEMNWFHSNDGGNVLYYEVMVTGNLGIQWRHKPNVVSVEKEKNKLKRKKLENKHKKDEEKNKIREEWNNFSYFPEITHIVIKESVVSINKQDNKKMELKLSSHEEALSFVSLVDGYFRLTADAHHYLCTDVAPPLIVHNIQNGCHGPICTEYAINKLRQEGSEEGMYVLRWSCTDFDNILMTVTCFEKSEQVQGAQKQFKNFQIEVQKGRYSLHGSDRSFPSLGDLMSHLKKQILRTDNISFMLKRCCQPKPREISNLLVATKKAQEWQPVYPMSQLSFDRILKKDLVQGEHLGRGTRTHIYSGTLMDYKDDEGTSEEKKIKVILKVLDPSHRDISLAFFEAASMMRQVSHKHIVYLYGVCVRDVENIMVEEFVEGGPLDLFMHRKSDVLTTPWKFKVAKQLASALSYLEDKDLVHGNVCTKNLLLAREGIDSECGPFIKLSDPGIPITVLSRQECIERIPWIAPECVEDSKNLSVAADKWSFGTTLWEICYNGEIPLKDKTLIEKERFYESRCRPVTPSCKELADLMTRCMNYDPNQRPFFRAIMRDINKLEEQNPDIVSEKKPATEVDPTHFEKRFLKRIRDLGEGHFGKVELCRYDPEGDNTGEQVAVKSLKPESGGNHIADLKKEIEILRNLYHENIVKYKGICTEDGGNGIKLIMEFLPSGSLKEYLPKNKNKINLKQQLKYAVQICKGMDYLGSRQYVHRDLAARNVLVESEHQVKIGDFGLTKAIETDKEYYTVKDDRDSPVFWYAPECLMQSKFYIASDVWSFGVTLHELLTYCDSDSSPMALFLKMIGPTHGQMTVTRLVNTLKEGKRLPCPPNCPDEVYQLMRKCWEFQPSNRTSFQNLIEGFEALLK
# UniProt P06241, whole entry, looked up: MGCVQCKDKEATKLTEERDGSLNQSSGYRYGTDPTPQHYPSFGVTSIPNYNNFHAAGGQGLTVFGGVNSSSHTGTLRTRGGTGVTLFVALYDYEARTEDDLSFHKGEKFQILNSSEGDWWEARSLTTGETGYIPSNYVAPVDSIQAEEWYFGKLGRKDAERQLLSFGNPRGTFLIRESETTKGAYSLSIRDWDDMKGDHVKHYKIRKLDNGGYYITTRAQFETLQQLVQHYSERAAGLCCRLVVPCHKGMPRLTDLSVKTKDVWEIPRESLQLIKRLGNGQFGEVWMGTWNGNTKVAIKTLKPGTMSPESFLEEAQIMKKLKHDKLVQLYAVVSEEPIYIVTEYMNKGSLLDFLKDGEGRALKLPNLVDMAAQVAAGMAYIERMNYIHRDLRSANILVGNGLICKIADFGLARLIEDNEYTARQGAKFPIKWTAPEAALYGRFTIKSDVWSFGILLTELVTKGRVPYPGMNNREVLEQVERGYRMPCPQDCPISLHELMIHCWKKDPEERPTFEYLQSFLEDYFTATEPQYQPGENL
# UniProt P22612, whole entry, looked up: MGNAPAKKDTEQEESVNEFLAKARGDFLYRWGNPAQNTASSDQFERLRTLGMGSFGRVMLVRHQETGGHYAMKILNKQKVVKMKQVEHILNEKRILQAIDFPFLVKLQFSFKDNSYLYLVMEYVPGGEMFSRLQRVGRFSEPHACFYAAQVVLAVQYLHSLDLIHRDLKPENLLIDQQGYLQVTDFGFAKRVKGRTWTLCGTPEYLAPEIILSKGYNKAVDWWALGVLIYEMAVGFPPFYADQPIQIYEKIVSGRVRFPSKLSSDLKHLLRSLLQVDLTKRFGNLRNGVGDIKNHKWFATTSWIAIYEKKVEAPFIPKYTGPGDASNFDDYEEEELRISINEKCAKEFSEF
# Tests used:
# Details in all cases: dose 1000.0 nM
# [1] = target: Focal adhesion kinase 1 (Homo sapiens) (UniProt Q05397)
# [2] = target: Calcium/calmodulin-dependent protein kinase type II subunit alpha (Homo sapiens) (UniProt Q9UQM7)
# [3] = target: Mitogen-activated protein kinase 3 (Homo sapiens) (UniProt P27361)
# [4] = target: Serine/threonine-protein kinase TBK1 (Homo sapiens) (UniProt Q9UHD2)
# [5] = target: Serine/threonine-protein kinase Sgk1 (Homo sapiens) (UniProt O00141)
# [6] = target: Tyrosine-protein kinase BTK (Homo sapiens) (UniProt Q06187)
# [7] = target: Tyrosine-protein kinase JAK2 (Homo sapiens) (UniProt O60674)
# [8] = target: Aurora kinase A (Homo sapiens) (UniProt O14965)
# [9] = target: Mitogen-activated protein kinase kinase kinase 20 (Homo sapiens) (UniProt Q9NYL2)
# [10] = target: Tyrosine-protein kinase Fes/Fps (Homo sapiens) (UniProt P07332)
# [11] = target: RAC-alpha serine/threonine-protein kinase (Homo sapiens) (UniProt P31749)
# [12] = target: Serine/threonine-protein kinase mTOR (Homo sapiens) (UniProt P42345)
# [13] = target: Homeodomain-interacting protein kinase 2 (Homo sapiens) (UniProt Q9H2X6)
# [14] = target: Homeodomain-interacting protein kinase 1 (Homo sapiens) (UniProt Q86Z02)
# [15] = target: Serine/threonine-protein kinase Chk1 (Homo sapiens) (UniProt O14757)
# [16] = target: ALK tyrosine kinase receptor (Homo sapiens) (UniProt Q9UM73)
# [17] = target: Inhibitor of nuclear factor kappa-B kinase subunit beta (Homo sapiens) (UniProt O14920)
# [18] = target: Serine/threonine-protein kinase B-raf (Homo sapiens) (UniProt P15056)
# [19] = target: RAF proto-oncogene serine/threonine-protein kinase (Homo sapiens) (UniProt P04049)
# [20] = target: Proto-oncogene tyrosine-protein kinase ROS (Homo sapiens) (UniProt P08922)
# [21] = target: Cytoplasmic tyrosine-protein kinase BMX (Homo sapiens) (UniProt P51813)
# [22] = target: Serine/threonine-protein kinase PAK 4 (Homo sapiens) (UniProt O96013)
# [23] = target: Tyrosine-protein kinase receptor UFO (Homo sapiens) (UniProt P30530)
# [24] = target: Cyclin-dependent kinase 2 (Homo sapiens) (UniProt P24941)
# [25] = target: Hepatocyte growth factor receptor (Homo sapiens) (UniProt P08581)
# [26] = target: Serine/threonine-protein kinase PAK 1 (Homo sapiens) (UniProt Q13153)
# [27] = target: Vascular endothelial growth factor receptor 1 (Homo sapiens) (UniProt P17948)
# [28] = target: Tyrosine-protein kinase JAK1 (Homo sapiens) (UniProt P23458)
# [29] = target: Dual specificity protein kinase CLK2 (Homo sapiens) (UniProt P49760)
# [30] = target: Tyrosine-protein kinase SYK (Homo sapiens) (UniProt P43405)
# [31] = target: Angiopoietin-1 receptor (Homo sapiens) (UniProt Q02763)
# [32] = target: Tyrosine-protein kinase Fyn (Homo sapiens) (UniProt P06241)
# [33] = target: Serine/threonine-protein kinase PLK1 (Homo sapiens) (UniProt P53350)
# [34] = target: Insulin-like growth factor 1 receptor (Homo sapiens) (UniProt P08069)
# [35] = target: Epidermal growth factor receptor (Homo sapiens) (UniProt P00533)
# [36] = target: cAMP-dependent protein kinase (PKA) (Homo sapiens) (UniProt P22694+P17612+P22612)
# [37] = target: Serine/threonine-protein kinase pim-1 (Homo sapiens) (UniProt P11309)
smiles,measurement,setting,value
CC(C)(C)c1cc(NC(=O)Nc2cccc(Nc3ccc4c(-c5cn[nH]c5)n[nH]c4c3)c2)n(-c2cc(F)cc(F)c2)n1,inhibition,[1],< 40%
same,inhibition,[2],< 40%
same,inhibition,[3],< 40%
same,inhibition,[4],< 40%
same,inhibition,[5],< 40%
same,inhibition,[6],50%
same,inhibition,[7],< 40%
same,inhibition,[8],< 40%
same,inhibition,[9],50%
same,inhibition,[10],< 40%
same,inhibition,[11],< 40%
same,inhibition,[12],< 40%
same,inhibition,[13],< 40%
same,inhibition,[14],< 40%
same,inhibition,[15],< 40%
same,inhibition,[16],< 40%
same,inhibition,[17],< 40%
same,inhibition,[18],< 40%
same,inhibition,[19],< 40%
same,inhibition,[20],< 40%
same,inhibition,[21],< 40%
same,inhibition,[22],< 40%
same,inhibition,[23],< 40%
same,inhibition,[24],< 40%
same,inhibition,[25],< 40%
same,inhibition,[26],< 40%
same,inhibition,[27],50%
same,inhibition,[28],< 40%
same,inhibition,[29],< 40%
same,inhibition,[30],< 40%
same,inhibition,[31],50%
same,inhibition,[32],50%
same,inhibition,[33],< 40%
same,inhibition,[34],< 40%
same,inhibition,[35],< 40%
same,inhibition,[36],< 40%
same,inhibition,[37],< 40%
